The entries are a selection whose mix differs from that of the whole data set. Results filed as inconclusive are left out. The source made the active and inactive calls. Cut-off read from the data, not from the text of the source: active = max fluorescein-equivalent concentration above about 10 nM; inconclusive = between about 1.1 nM and that limit; inactive = weaker than that.

The experiment can be described thus: qHTS Assay for Spectroscopic Profiling in Fluorescein Spectral Region. Conditions: Compound autofluorescence, 480/540 nm, fluorescein-equivalent. From the text: NIH Molecular Libraries Screening Centers Network [MLSCN]
NIH Chemical Genomics Center [NCGC]
Occasionally, the artifactual effect may originate from the compound's own spectral or other biophysical properties which generally tend to track its assay concentration. Pre-screening/profiling the library with respect to the compounds' spectral properties should help one exclude false positives early on. While the most informative fluorescent profiling data set is obtained by performing a full excitation and emission scan of each well by using a monochromator-based plate reader, such an approach is practical only on a very limited scale as scanning each well requires long time. An alternative approach, applied here, is to perform plate reader scans using selected excitation and emission wavelength pairs to generate a multidimensional relational database that correlates compound concentration and the respective relative fluorescence intensity at a given wavelength set. A standard curve of fluorescein present on each plate as six-point concentration series, was used to compute a normalized fluorescence response, termed dye-equivalent concentration, for each compound at each concentration.
NCGC Assay Protocol Summary:
100 mM Tris buffer, pH 8.0
The wells in columns 1 through 4 of a Kalypsys polypropylene 1536-well compound plate were filled with standard solutions of fluorophore corresponding to the spectral region of interest. Solutions of Fluorescein were placed in the following wells: Q1, R1: 3 mM, Q2, R2: 300 uM, Q3, R3: 30 uM, Q4, R4: zero (DMSO), S1, T1: 3 uM, S2, T2: 900 nM, S3, T3: 300 nM, S4, T4: zero (DMSO).
Six uL of buffer were dispensed to 1536-well Greiner black plates. Compounds and dye standards (23 nL) were transferred via Kalypsys PinTool. The plates were incubated for 15 min at room temperature, and then read on ViewLux (Perkin-Elmer) High-throughput CCD imager using 480 nm and 540 nm excitation and emission filter set.
Keywords: NIH Roadmap, MLSCN, MLI, MLSMR, qHTS, NCGC, Fluorescein, Fluorescent Profiling.
Turning to `CCOc1ncccc1C(=O)NCC1(N2CCOCC2)CCCCC1`, the outcome was inactive.

For `O=C(O)C1(Nc2ccccc2)CCN(Cc2ccccc2)CC1`, the result was inactive.

For `N/C(=N\O)c1c(N)no[n+]1[O-]`, the outcome was inactive.

Take `N#CC1(Nc2ccccc2)CCN(CCc2ccccc2)CC1`: the result was inactive.

As for `NC1CCCCC1.NP(=O)(O)N(CCCl)CCCl`, the result was inactive.

For `O=C(OC1CN2CCC1CC2)C1c2ccccc2Oc2ccccc21` (stereo unspecified), the outcome was inactive.

Values taken from PubChem BioAssay AID593 (National Center for Advancing Translational Sciences (NCATS), 2007).
